According to PMC7290320:

Assays:
[1] = molecular target: zebrafish Rbpr2 Leu273Ser mutant, V5-tagged (zebrafish)
[2] = molecular target: zebrafish Rbpr2 Ser268Ala mutant, V5-tagged (zebrafish)
[3] = molecular target: zebrafish Rbpr2 Tyr272Pro mutant, V5-tagged (zebrafish)

Measured: [3H]ROL-RBP4 uptake at 60 min in stable NIH3T3/LRAT cells, scintillation counting (% activity of WT-Rbpr2)

human plasma retinol-binding protein (RBP4), retinol-bound (holo-RBP4) (from UniProt P02753 19-194) (ligand)
< 12: all assays above
